{"source": "patent US7429557B2", "about": "“Replacement solvents having improved properties and methods of using the same” (Mainstream Engineering Corporation, priority 2005, dated 2008)", "origin": "cited, not measured here", "settings": "reported; cited from earlier work"}
{"smiles": "FC(F)(Cl)C(F)(Cl)Cl", "note": "[CFC-113, 1,1,2-trichloro-1,2,2-trifluoroethane]", "values": [{"measurement": "Ames test", "result": "negative"}]}
